miR-21 FLuc – miR-21 reporter, rising signal | HeLa miR-21 FLuc reporter, luciferase, 48 h | Potency, µM (top dose mostly 38.3 µM) | 340,000 tested, under 10 active | AID 2288; active = well fitted rising curve with a large enough effect; inconclusive = small, poorly fitted or top-dose-only effect; inactive = no such curve, though single readings can be large or run the other way;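 further: miR-21 action dims this reporter so a rising signal means less miR-21 action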
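Using DMEM plus 10% FBS, HeLa miR-21-FLuc cells are incubated with test compounds (final up to about 40uM) for 48 hours; firefly luciferase signal is then imaged following reagent-mediated lysis.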
DT40 TDP1 CPT – DT40-hTDP1 cell growth loss with CPT. chicken DT40 Tdp1-/-;hTDP1 cells + 20 nM CPT, ATP luminescence, 48 h. Potency, µM (doses to about 46.2 µM), actives largely listed as inhibitors. 420,000 compounds, 12% hits; also: nearly all actives have a fitted effect of over 55% in size
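Chicken DT40 Tdp1-/- cells stably complemented with human TDP1 were seeded at 400 cells/well in medium containing 20 nM camptothecin, exposed to pin-transferred compounds, and grown at 37 °C for at least 48 hr. Viability was read as ATP luminescence.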
DT40 TDP1 no CPT – qHTS for Inhibitors of human tyrosyl-DNA phosphodiesterase 1 (TDP1): qHTS in cells in absence of CPT; Potency, µM (doses to about 46.2 µM), usual class: inhibitors; 420,000 compounds, 15% hits; DT40 Tdp1-/- hTDP1 cells, no CPT, ATP luminescence, 48 h; AID 686978, 2013; also: nearly all actives have a fitted effect of over 55% in size
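No-CPT arm: Tdp1-/-;hTDP1 DT40 cells (400/well) plus compounds, incubated ≥48 hr at 37 °C. Readout CellTiter-Glo luminescence.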
TDP1 block – inhibitors of human tyrosyl-DNA phosphodiesterase TDP1; Q9NUW8; recombinant TDP1, AlphaScreen DNA substrate cleavage; Potency, µM (highest dose often 130 µM), usual class: inhibitors; 350,000 compounds, 0.28% hits; AID 485290; also: nearly all actives have a fitted effect of over 40% in size
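Steps: enzyme plus compound, 15 min RT; add biotin/phosphotyrosine-FITC oligonucleotide (15 nM final), react 5 min; add donor/acceptor beads (10 ug/ml final), 10 min; read AlphaScreen. Tdp1 at 1 nM final.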
uPA generation – blocks generation of uPA at the cell surface; Potency, µM (top dose mostly 38.3 µM), most hits filed as inhibitors; cell surface uPA generation assay, qHTS; 330,000 compounds, 0.31% hits; active = well fitted inhibition curve with a large enough effect; inconclusive = small, poorly fitted or top-dose-only effect; inactive = no such curve, though single readings can be large or run the other way; tested in mouse RAW 264.7 cells; also: nearly all actives have a fitted effect of over 55% in size
A number is an active result; – = inactive; ? = inconclusive; · = not tested or not shown. An excerpt weighted towards active compounds, which were near 16% of everything screened. Unless noted, calls follow the shape of the dose curve; as a rule, active = well fitted curve in the direction sought with a large enough effect; inconclusive = small, poorly fitted or top-dose-only effect, or another doubt; inactive = no such curve, though single readings can be large; an effect the other way counts as inactive or inconclusive.

SMILES | miR-21 FLuc | DT40 TDP1 CPT | DT40 TDP1 no CPT | TDP1 block | uPA generation
CNC(=O)C(=O)NCC1CCCN1S(=O)(=O)c1cccs1 (configuration not stated) | · | – | – | · | –
Cc1ccc(NC(=O)C(=O)NCC2CCCN2S(=O)(=O)c2cccs2)cc1 (configuration not stated) | · | ? | ? | – | –
Cc1noc(C)c1C(=O)NCc1ccco1 | – | – | – | – | ·
N#Cc1c2c(c(=S)n(-c3ccccc3)c1N)CCCC2 | – | – | – | – | –
Cc1ccc(NC2CCCN(C(=O)c3nonc3C)C2)cc1C (configuration not stated) | · | – | – | · | ·
Cc1ccccc1NC(=O)CSc1nccn1C | – | · | · | – | ·
CN(C(=O)NC1CCCCC1)c1ccccc1 | – | – | – | – | –
COc1ccc(/C=C/C(=O)Nc2ccccc2)cc1OC | – | – | – | – | –
COc1ccc(/C=C/C(=O)O/N=C(\N)c2ccccc2)cc1OC | – | – | – | – | –
COc1ccc(/C=C/C(=O)c2ccc3c4c(cccc24)CC3)cc1OC | – | 21µM | 16µM | – | –
COc1ccc(/C=C/C(=O)c2cc(F)ccc2OC(=O)c2ccccc2C)cc1OC | ? | 0.92µM | 1µM | – | –
COc1ccc(C(=O)Oc2ccc(F)cc2C(=O)/C=C/c2ccc(OC)c(OC)c2)cc1 | – | 15µM | 13µM | – | –
N#Cc1cc2c([nH]c1=S)CCCC2 | – | – | – | – | –
C=CCSC(=C(C#N)C#N)c1cc2c([nH]1)CCCC2 | ? | 10µM | 12µM | – | –
Cc1ccc(-c2cc(C(=O)NCCCN3CCOCC3)no2)cc1 | – | ? | – | – | –
CCN(CC)CCCNC(=O)c1cc(-c2ccc(O)cc2)on1 | – | – | – | – | –
CCN(CC)CCCNC(=O)c1cc(-c2ccc(Cl)c(Cl)c2)on1 | – | 21µM | 23µM | – | ·
O=C(NCCCN1CCOCC1)c1cc(-c2ccc(Cl)c(Cl)c2)on1 | – | ? | 16µM | – | –
Cc1cccc(-n2c(O)c(C=Nc3c(C)n(C)n(-c4ccccc4)c3=O)c3ccccc3c2=O)n1 | – | – | ? | – | –
O=S1(=O)CC2N=C(N(Cc3ccc(F)cc3Cl)c3ccccc3F)SC2C1 (configuration not stated) | – | – | – | – | –
S=C(NCC1(c2ccccc2)CCCC1)Nc1ccccc1 | – | 21µM | 12µM | · | –
Cc1ccccc1NC(=O)C(=O)NCC1(c2ccccc2)CCCC1 | – | ? | 16µM | – | ·
O=C(NCC1(c2ccccc2)CCCC1)C(=O)NCC1(c2ccccc2)CCCC1 | – | – | – | – | –
COc1ccccc1C(=O)NCC1(c2ccccc2)CCCC1 | – | 16µM | ? | – | –
O=C(NCC1(c2ccccc2)CCCC1)c1ccccc1 | – | 15µM | 12µM | – | –
SMILES | miR-21 FLuc | DT40 TDP1 CPT | DT40 TDP1 no CPT | TDP1 block | uPA generation
COc1ccc(C)cc1NC(=O)C(=O)NCC1(c2ccccc2)CCCC1 | – | ? | ? | – | ·
O=C(NCCCn1ccnc1)/C(=C/c1ccc(F)cc1)NC(=O)c1ccccc1 | – | – | – | · | –
O=C(NCC1(c2ccccc2)CCCC1)c1ccccc1Br | – | 16µM | ? | – | –
CCOC(=O)C1CCCN(c2nc3c(S(=O)(=O)c4ccc(CC)cc4)nnn3c3ccc(Cl)cc23)C1 (configuration not stated) | – | ? | ? | – | ·
CCOC(=O)C1CCN(c2nc3c(S(=O)(=O)c4ccc(C)c(C)c4)nnn3c3ccc(Cl)cc23)CC1 | – | ? | ? | – | ·
CCc1ccc(S(=O)(=O)c2nnn3c2nc(N2CCCC(C)C2)c2cc(Cl)ccc23)cc1 (configuration not stated) | – | ? | 7.3µM | – | ·
CCc1ccc(S(=O)(=O)c2nnn3c2nc(N2CCC(C)CC2)c2cc(Cl)ccc23)cc1 | – | 18µM | 10µM | – | ·
COc1ccc(-c2ccc(SCC(=O)c3cccs3)nn2)cc1OC | – | ? | 16µM | – | –
Cc1c(Cl)cccc1NC(=O)CSc1ccc(-c2ccccn2)nn1 | – | ? | 23µM | – | ·
COc1ccccc1NC(=O)CSc1ccc(-c2ccccn2)nn1 | – | ? | ? | – | –
O=C(CSc1ccc(-c2cccs2)nn1)Nc1cccc(F)c1 | – | 15µM | 23µM | – | ·
O=C(CSc1ccc(-c2cccs2)nn1)Nc1ccccc1C(F)(F)F | – | ? | ? | – | ·
COc1ccc(NC(=O)CSc2ccc(-c3ccccn3)nn2)cc1OC | – | 23µM | 16µM | – | –
Cc1cccc(NC(=O)CSc2ccc(-c3ccccn3)nn2)c1C | – | – | ? | – | –
O=C(Nc1ccccc1OC(F)F)C1CCCN1C(=O)c1cccs1 (configuration not stated) | – | – | – | – | –
COc1ccccc1CCNC(=O)C(=O)c1cn(CC(=O)N2CCCC2)c2ccccc12 | – | ? | ? | – | –
Cc1cc(C)c(NC(=O)CSc2ccc(-c3ccccn3)nn2)c(C)c1 | – | 23µM | 23µM | – | –
CC(=O)c1cccc(NC(=O)CSc2ccc(-c3ccco3)nn2)c1 | – | ? | ? | – | –
O=C(CSc1ccc(-c2ccccn2)nn1)Nc1ccc(F)c(F)c1 | – | 21µM | 21µM | – | –
COc1ccccc1NC(=O)CSc1ccc(-c2ccc(-n3cccn3)cc2)nn1 | · | ? | 18µM | – | –
COc1ccc(-c2ccc(SCC(=O)Nc3cccc(C(C)=O)c3)nn2)cc1OC | – | 13µM | 18µM | – | –
Cc1ccc(NC(=O)CSc2ccc(-c3ccccn3)nn2)c(C)c1 | – | ? | ? | – | –
CCOC(=O)c1ccc(NC(=O)CSc2ccc(-c3ccccn3)nn2)cc1 | – | 21µM | 18µM | – | –
COc1ccc(-c2csc(N3N=C(C)C(C)C3=O)n2)cc1 (configuration not stated) | – | ? | ? | – | –
CC1=NN(c2nc(-c3ccc(C)cc3)cs2)C(=O)C1N=Nc1cccc(O)c1 (configuration not stated) | – | ? | 16µM | – | –
CC1=NN(c2nc(-c3ccc(C)cc3)cs2)C(=O)C1N=Nc1ccccc1O (configuration not stated) | – | 4.1µM | 4.6µM | – | –
CCN(CC)S(=O)(=O)c1ccc(NC2c3ccccc3C(=O)N2CCN2CCOCC2)cc1 (configuration not stated) | – | ? | – | – | –
C/C(=N\NC(=O)c1ccn(C)n1)c1cccc(NC(=O)c2ccc(C)s2)c1 | – | ? | ? | – | –
CC(=O)Nc1nc(NC(=O)C(Cl)(Cl)Cl)n(-c2ccccc2)n1 | – | – | ? | – | –
COc1cc(NC(=O)c2ccc(S(=O)(=O)N(C)C)cc2)cc(OC)c1OC | – | – | – | – | –
